The chains behind the UniProt entries cited, without tags or fusion partners. Residues count along the entry.
UniProt P01116, 1-188 isoform 2 G12C: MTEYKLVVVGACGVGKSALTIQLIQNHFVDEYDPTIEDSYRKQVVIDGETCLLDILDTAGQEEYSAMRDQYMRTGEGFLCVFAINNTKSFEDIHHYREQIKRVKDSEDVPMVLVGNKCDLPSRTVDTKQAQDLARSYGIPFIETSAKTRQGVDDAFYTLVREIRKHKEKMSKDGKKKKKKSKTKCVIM

According to patent US20250263424A1, “KRAS INHIBITORS” (Bristol-Myers Squibb Company, priority 2022, published 2025):

Target: Recombinant GMPPNP-loaded KRAS G12C (KRAS-G12C(ON), active form) (Homo sapiens, UniProt P01116, G12C)
Test: KRAS G12C RAF Disruption Assay (HTRF)
Settings: read-out: KRASG12C RAF Disruption Assay (IC50), GMPPNP-loaded KRAS G12C 5 nM, GST-RAF1 RBD 9 nM, values in nM
Description: This is a functional assay that measures activity of compounds against KRAS-G12C^(ON), i.e., the active form of KRAS G12C. Recombinant GMPPNP-loaded KRAS G12C (5 nM) was treated with compound at room temperature for 20 minutes in assay buffer (50 mM Tris pH 7.5, 100 mM NaCl, 1 mM MgCl2, 1 mM DTT, 100 μg/ml BSA). Recombinant GST-RAF1 RBD (9 nM) was added, and the reaction mixture was incubated for 20 minutes. SA-Tb (0.25 nM) was added, and the reaction mixture was incubated for 3 hours. HTRF signal was measured (PerkinElmer Envision), the signal ratio (λem 520/λem 495) was calculated, and IC50 values were calculated from the dose-response curve.

Row | SMILES | IC50 [nM]
1 | CN1CCC[C@H]1COc1nc(N2CCN(C(=O)/C(F)=C/c3ccccn3)[C@@H](CC#N)C2)c2ccc(-c3c(O)cccc3F)c(F)c2n1 | 200
2 | CN1CCC[C@H]1COc1nc(N2CCN(C(=O)/C(F)=C/c3ncccn3)[C@@H](CC#N)C2)c2ccc(-c3cc(O)cc4ccccc34)c(F)c2n1 | 10
